We go through one molecule from US9631001B2, “Peptide antagonists of the vasopressin-2 receptor” (COMMISSARIAT A L'ENERGIE ATOMIQUE ET AUX ENERGIES …, priority 2012, dated 2017).

The chains behind the UniProt entries cited, without tags or fusion partners. Where a name states a change or a piece, a line headed by the entry shows the natural chain unless it says otherwise.
UniProt P30518, whole entry: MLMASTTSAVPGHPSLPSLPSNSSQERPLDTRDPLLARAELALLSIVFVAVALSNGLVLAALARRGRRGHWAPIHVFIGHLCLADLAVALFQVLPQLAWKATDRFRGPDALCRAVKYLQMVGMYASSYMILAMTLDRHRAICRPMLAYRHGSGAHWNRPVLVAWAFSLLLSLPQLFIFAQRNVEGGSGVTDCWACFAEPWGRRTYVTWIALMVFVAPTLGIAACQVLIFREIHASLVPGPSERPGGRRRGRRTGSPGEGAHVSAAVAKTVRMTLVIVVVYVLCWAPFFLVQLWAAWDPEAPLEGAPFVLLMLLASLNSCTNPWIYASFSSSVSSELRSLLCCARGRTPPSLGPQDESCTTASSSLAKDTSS

The target in the test is vasopressin V2 receptor subtype (V2R) (Homo sapiens, UniProt P30518). Kind of test: 3H-AVP competition binding on V2R membranes. Particulars: binding inhibition of 3H-AVP on V2R (FIG. 16).

pKi: −log10 of the molar value.

What is called pKi is the Ki on a negative log10 scale, so that one unit is a factor of ten.

With `CC[C@H](C)[C@@H]1NC(=O)[C@H]([C@@H](C)O)NC(=O)[C@H](CO)NC(=O)[C@H](Cc2ccccc2)NC(=O)[C@H](CCCNC(=N)N)NC(=O)[C@H](CC(N)=O)NC(=O)[C@H](C)NC(=O)[C@H](CC(N)=O)NC(=O)CNC(=O)[C@H](CCCCN)NC(=O)[C@@H]2CSSC[C@@H]3NC(=O)[C@@H]4CCCN4C(=O)CNC(=O)[C@@H]4CCCN4C(=O)[C@H](CCCCN)NC(=O)[C@H](C(C)C)NC(=O)[C@@H]4CCCN4C(=O)[C@H](CC(C)C)NC(=O)[C@H](CC(N)=O)NC(=O)[C@@H](NC(=O)[C@H](Cc4ccccc4)NC(=O)[C@H](CO)NC(=O)[C@@H]4CCCN4C(=O)[C@@H](N)CCCNC(=N)N)CSSC[C@@H](C(=O)N[C@H](C(=O)NCC(=O)O)C(C)C)NC(=O)[C@H]([C@@H](C)O)NC(=O)[C@H](CCCNC(=N)N)NC(=O)[C@H](CCCNC(=N)N)NC(=O)[C@H](CSSC[C@H](NC(=O)[C@H](CCCCN)NC(=O)[C@H](CC(N)=O)NC(=O)[C@H]([C@@H](C)O)NC(=O)[C@H](CCCCN)NC(=O)[C@H](CCC(N)=O)NC(=O)[C@H](CO)NC(=O)[C@H](Cc4ccc(O)cc4)NC(=O)[C@H](Cc4ccc(O)cc4)NC(=O)[C@H](Cc4ccccc4)NC(=O)[C@H](C)NC(=O)[C@H](CO)NC(=O)[C@H](Cc4ccccc4)NC(=O)[C@H](Cc4ccccc4)NC(=O)CNC(=O)[C@H](CC(N)=O)NC3=O)C(=O)N[C@@H](Cc3c[nH]cn3)C(=O)N[C@@H](CO)C(=O)N[C@@H](Cc3ccccc3)C(=O)N[C@@H]([C@@H](C)O)C(=O)N[C@@H](Cc3ccc(O)cc3)C(=O)NCC(=O)NCC(=O)N2)NC(=O)[C@H](CCCCN)NC(=O)[C@H](CCC(=O)O)NC1=O` [U-Da2a], the pKi was 8.99.
